Apparent affinities of Ab-95 variants for a coronavirus HR2 peptide

Data: MIT Lincoln Laboratory AlphaSeq set, Engelhart et al. 2022, doi:10.1038/s41597-022-01779-4, as distributed in FLAb.

Target peptide (SARS-CoV-2 spike, HR2 region): PDVDLGDISGINAS

Each scFv is VH, a (GGGGS)3 linker, VL, as in the parent Ab-95, and differs from it in the CDRs of the light chain only.
VH: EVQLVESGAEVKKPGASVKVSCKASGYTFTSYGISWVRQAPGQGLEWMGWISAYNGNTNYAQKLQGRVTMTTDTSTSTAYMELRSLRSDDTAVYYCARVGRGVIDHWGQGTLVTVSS
VL: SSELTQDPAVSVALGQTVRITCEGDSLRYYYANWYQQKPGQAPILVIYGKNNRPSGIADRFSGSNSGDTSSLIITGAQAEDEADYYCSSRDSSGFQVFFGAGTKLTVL

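The starting antibody came from a phage panning campaign against this peptide. AAYL52 was designed without a model: most single CDR substitutions and a random sample of double and triple ones. AlphaSeq pools MATa yeast showing the antibodies with MATalpha yeast showing the peptide. After mating in shaken culture at 30 °C for 16 h, diploids were selected and their barcode pairs sequenced. The ratio of observed to expected reads was calibrated, replicate by replicate, on BCL2-family standards whose Kd was known from biolayer interferometry. Mating was done three times.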

Positions count from residue 1 of the parent VL; L27D puts D in place of L. The read-out is the apparent dissociation constant on a log10 scale (nM): the lower, the stronger. An entry "n.d." has no value in the source: the pair was not observed among the diploids in that replicate. This suggests poor binding but is not conclusive.

changes,"replicates, log10 nM",signal with controls
L27D+A32D+P54N,3.35 n.d. n.d.,3 of 9 (3.65)
Y29H+G49Q+P54I,3.88 n.d. 4.16,2 of 9 (3.58)
S55D+S88W+F95C,3.24 3.21 3.49,5 of 9 (4.54)
D25G+R53A+S89G,3.91 4.27 n.d.,3 of 9 (3.76)
D25T+N51K+S55W,n.d. 3.52 n.d.,3 of 9 (3.84)
E23C+G49L+S55A,n.d. 3.11 n.d.,5 of 9 (4.41)
R28Y+N51F+D91P,4.13 4.33 4.15,4 of 9 (4.14)
L27V+S88R+S89T,3.65 2.62 3.19,1 of 9 (3.87)
S89F+G94L+V97E,4.55 3.20 n.d.,1 of 9 (3.53)
E23Y+D25T+D91F,2.69 1.82 2.52,2 of 9 (3.82)
R53N+G94L+Q96T,2.99 n.d. 3.99,1 of 9 (3.61)
S26N+Y30T+R53K,1.12 1.19 0.66,4 of 9 (4.24)
R28C+G49L+N51Q,5.09 5.19 n.d.,5 of 9 (4.26)
S26E+Y29T+D91C,3.29 3.35 3.74,0 of 9
S92T+G94I+Q96N,2.31 2.56 2.16,1 of 9 (3.69)
S26Y+A32H+S55P,n.d. n.d. n.d.,2 of 9 (3.48)
S26V+S89Y+F98C,n.d. 3.80 3.63,1 of 9 (4.59)
S93L+V97E+F98L,n.d. n.d. n.d.,0 of 9
Y31E+A32H+S92C,n.d. n.d. n.d.,2 of 9 (4.18)
R90E+G94P+F98W,4.02 2.73 2.92,1 of 9 (3.16)
S26E+N52I+G94T,4.27 3.68 n.d.,5 of 9 (3.83)
N51A+S88V+V97E,3.93 4.14 n.d.,2 of 9 (4.48)
L27R+Y30E+P54E,1.44 0.88 0.48,6 of 9 (3.86)
G24V+R53G+S88M,n.d. n.d. n.d.,0 of 9
G24D+Y29P+V97M,n.d. 3.75 4.37,1 of 9 (3.40)
R28H+N51I+Q96V,n.d. 5.12 n.d.,0 of 9
Y31H+V97M+F98Y,2.40 2.15 0.89,1 of 9 (2.50)
K50I+N52A+Q96V,3.95 n.d. n.d.,2 of 9 (3.31)
R28Y+N52C+S55D,2.63 n.d. 2.64,1 of 9 (3.38)
D25W+N33L+S92P,4.09 n.d. n.d.,1 of 9 (5.17)
Y29L+N52E+G94P,2.90 3.36 2.82,6 of 9 (4.11)
L27Y+R28K+F95S,n.d. n.d. n.d.,4 of 9 (4.15)
D25T+S92N,3.76 3.08 2.83,2 of 9 (3.42)
A32C+N51S+G94N,n.d. n.d. n.d.,3 of 9 (3.70)
G24W+G49T+K50R,4.14 4.22 n.d.,5 of 9 (3.84)
D25G+D91A+S93T,2.47 2.51 2.30,4 of 9 (3.55)
Y29R+P54T+S92K,3.14 n.d. 3.68,1 of 9 (3.43)
R28N+Y29V,4.26 3.15 3.73,0 of 9
Y29S+N51W+S93V,3.79 n.d. 3.58,5 of 9 (3.73)

The first 3 variants above that were never detected:

| changes | replicates, log10 nM | signal with controls |
|---|---|---|
| S26Y+A32H+S55P | n.d. n.d. n.d. | 2 of 9 (3.48) |
| S93L+V97E+F98L | n.d. n.d. n.d. | 0 of 9 |
| Y31E+A32H+S92C | n.d. n.d. n.d. | 2 of 9 (4.18) |

For reference, the parent read 2.31 as the reference entry and 2.25 as a member of this library. Empty control strains, which show no peptide, gave a signal in 28% of pairings with library AAYL52; the median was 3.91 and 95% of these signals were weaker than 2.90. No background was subtracted. The control count says in how many pairings with the empty strains this scFv gave a signal, with their mean in brackets.